Assay results taken from article PMC7723054.
“And” between values parts separate entries of the source, which are not always exact repeats. Equal entries are not always repeated.

How the values were obtained:
[1] = system: DHX36 (human); test: pull-down, barcode microarray; details: BG4/CIRBP/DHX36: 10 mM Tris-HCl pH 7.5, 100 mM KCl (or LiCl), 10% glycerol, 0.1 ug/uL BSA, 4 C, U1A/LIN28A/EIF3: 20 mM HEPES pH 7.5, 80 mM KCl, 20 mM NaCl
[2] = system: CIRBP (human); test: pull-down, barcode microarray; details: BG4/CIRBP/DHX36: 10 mM Tris-HCl pH 7.5, 100 mM KCl (or LiCl), 10% glycerol, 0.1 ug/uL BSA, 4 C, U1A/LIN28A/EIF3: 20 mM HEPES pH 7.5, 80 mM KCl, 20 mM NaCl
[3] = system: BG4 anti-G4 antibody Fab; test: pull-down, barcode microarray; details: BG4/CIRBP/DHX36: 10 mM Tris-HCl pH 7.5, 100 mM KCl (or LiCl), 10% glycerol, 0.1 ug/uL BSA, 4 C, U1A/LIN28A/EIF3: 20 mM HEPES pH 7.5, 80 mM KCl, 20 mM NaCl
[4] = molecular target: T1, U1A (human, UniProt P09012 1-102); test: pull-down, barcode microarray; BG4/CIRBP/DHX36: 10 mM Tris-HCl pH 7.5, 100 mM KCl (or LiCl), 10% glycerol, 0.1 ug/uL BSA, 4 C; U1A/LIN28A/EIF3: 20 mM HEPES pH 7.5, 80 mM KCl, 20 mM NaCl, 10%
[5] = molecular target: T1, U1A; test: pull-down, barcode microarray; no significant score; BG4/CIRBP/DHX36: 10 mM Tris-HCl pH 7.5, 100 mM KCl (or LiCl), 10% glycerol, 0.1 ug/uL BSA, 4 C; U1A/LIN28A/EIF3: 20 mM HEPES pH 7.5, 80 mM KCl, 20 mM NaCl, 10%

Molecule	binding signal (binding intensity) [1]	binding signal (binding intensity) [2]	binding signal (binding intensity) [3]	binding result [4]	binding result [5]
G4_(GGGU)6	18.1	–	–	–	–
G4_(GGGU)8	18	9.61	2.14 and 3.92	–	–
G4_(GGGUU)6	17.5	9.62	2.17 and 3.88	–	–
G4_(GGGUU)8	18.4	10.1	4.2 and 2.35	–	–
G4_(UGGGGU)6	18.3	10.1	2.26 and 4.04	–	–
G4_(UGGGGU)8	17.8	11.3	4.29 and 2.11	–	–
G4_(UGGGU)6	16.9	10.6	–	–	–
G4_(UGGGU)8	16.9	9.24	2.06 and 4.01	–	–
G4_(UGGU)6	18.6	–	–	–	–
G4_(UGGU)8	19	–	2.08 and 3.9	–	–
hsa-mir-577 loop	–	–	2.44 and 3.9	–	–
hsa-mir-760 loop	–	9.17	–	–	–
hsa-mir-4259 loop	–	–	3.69 and 2.06	–	–
hsa-mir-4296 loop	15.8	–	–	–	–
hsa-mir-4516 loop	–	10.9	–	–	–
hsa-mir-5189 loop	–	9.27	–	–	–
hsa-mir-5583-2 loop	–	–	2.26 and 3.8	–	–
hsa-mir-6850 loop	16.4	10.1	–	–	–
r(GAA)16	–	16.3	2.35 and 4.03	–	–
GGUGUACGAAGUUUCAGCAUUGCACUCCGCUGAAGCUUCGUGCACC (structured_RNA) [U1A-binding aptamer]	–	–	–	binds	–
GGUGUACGAAGUUUCAGCAUUACGGUCCGCUGAAGCUUCGUGCACC (structured_RNA) [U1A-binding aptamer defective mutant]	–	–	–	–	no binding
